{"source": "paper PMC10305115", "about": "“Development of a Minimalistic Physiologically Based Pharmacokinetic (mPBPK) Model for the Preclinical Development of Spectinamide Antibiotics” (Pharmaceutics, 2023)", "key": {"in vitro [1]": {"assay": "in vitro", "conditions": "whole blood"}, "in vitro [2]": {"assay": "in vitro", "conditions": "Sprague-Dawley, rat, whole blood"}, "[3]": {"assay": "Minimalistic PBPK model, mouse (fitting and simulation)", "conditions": "healthy mice; for AUCinf Fold Difference (predicted vs observed): plasma"}, "[4]": {"conditions": "healthy rats, plasma, IV SD 10 mg/kg"}}, "note": "Like-named read-outs stand apart in the source and are kept apart here."}
{"smiles": "CN[C@@H]1[C@H](O)[C@H](NC)[C@H]2O[C@]3(O)[C@H](O[C@@H]2[C@H]1O)O[C@H](C)C[C@H]3NC(=O)Cc1ccc(O)cn1", "note": "[Spectinamide 1810, 2-(5-hydroxypyridin-2-yl)-N-((2R,4R,4aS,5aR,6S,7S,8R,9S,9aR,10aS)-4a,7,9-trihydroxy-2-methyl-6,8-bis(methylamino)decahydro-2H-benzo[b]pyrano [2,3-e] [1,4]dioxin-4-yl)acetamide]", "values": [{"measurement": "blood plasma ratio at 1 h", "setting": "in vitro [1]; BALB/c (mouse), Sprague-Dawley (rat), mouse and rat", "result": "0.5 to 0.8"}, {"measurement": "blood plasma ratio at 1 h", "setting": "in vitro [1]; BALB/c, mouse", "result": 0.604}, {"measurement": "blood plasma ratio at 1 h", "setting": "in vitro [2]", "result": 0.785}, {"measurement": "AUCinf Liver Fold Difference", "setting": "[3]; IV QD5 10 mg/kg", "result": 1.37}, {"measurement": "AUCinf Liver Fold Difference", "setting": "[3]; IV SD 10 mg/kg", "result": 1.25}, {"measurement": "AUCinf Lung Fold Difference", "setting": "[3]; IV QD5 10 mg/kg", "result": 1.14}, {"measurement": "AUCinf Lung Fold Difference", "setting": "[3]; IV SD 10 mg/kg", "result": 1.48}, {"measurement": "AUCinf Fold Difference (predicted vs observed)", "setting": "[3]; IV QD5 10 mg/kg", "result": 1.23}, {"measurement": "AUCinf Fold Difference (predicted vs observed)", "setting": "[3]; IV SD 10 mg/kg", "result": 1.04}, {"measurement": "AUCinf Fold Difference (predicted vs observed)", "setting": "[3]; SC QD5 50 mg/kg", "result": 1.63}, {"measurement": "AUCinf Fold Difference (predicted vs observed)", "setting": "[3]; SC QD5 200 mg/kg", "result": 1.65}, {"measurement": "AUCinf Fold Difference (predicted vs observed)", "setting": "[3]; SC SD 46 mg/kg", "result": 1.05}, {"measurement": "AUCinf Fold Difference (predicted vs observed)", "setting": "[3]; SC SD 50 mg/kg", "result": 1.70}, {"measurement": "AUCinf Fold Difference (predicted vs observed)", "setting": "[3]; SC SD 200 mg/kg", "result": 1.67}, {"measurement": "AUCinf Spleen Fold Difference", "setting": "[3]; IV QD5 10 mg/kg", "result": 1.19}, {"measurement": "AUCinf Spleen Fold Difference", "setting": "[3]; IV SD 10 mg/kg", "result": 1.03}, {"measurement": "AUCinf Fold Difference (predicted vs observed)", "setting": "[4]", "result": 1.61}]}
